# Assay results from patent publication US20030144346A1, “Methods and compositions for regulation of 5-alpha reductase activity” (priority 1997, published 2003).
# Tests used:
# [1] = target: T1, type 1 human 5α-reductase (HRED1) (Homo sapiens, UniProt P18405); assay: Cell free assay of 5α-reductase, microsomes of rat 1A cells expressing type 1 isoenzyme (HRED1); type: biochemical; set-up: expressed in transfected cells; host or cells: rat 1A cells infected with pMV7 retrovirus; microsomes;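 note: microsomes from rat 1A cells expressing human type 1 5α-reductase, conversion of radiolabeled testosterone to dihydrotestosterone quantified by thin layer chromatography with radioanalytic scanning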
# T1 sequence (P18405 1-259): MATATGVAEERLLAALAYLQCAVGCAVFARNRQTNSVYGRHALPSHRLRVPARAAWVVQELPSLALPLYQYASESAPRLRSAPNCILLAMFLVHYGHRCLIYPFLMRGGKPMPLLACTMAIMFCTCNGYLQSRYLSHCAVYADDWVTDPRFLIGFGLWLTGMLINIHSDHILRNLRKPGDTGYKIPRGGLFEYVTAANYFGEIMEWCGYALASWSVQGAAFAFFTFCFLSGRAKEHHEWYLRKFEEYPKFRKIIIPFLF
# [2] = target: T2, type 2 human 5α-reductase (HRED2) (Homo sapiens, UniProt P31213); assay: Cell free assay of 5α-reductase, microsomes of rat 1A cells expressing type 2 isoenzyme (HRED2); type: biochemical; set-up: expressed in transfected cells; host or cells: rat 1A cells infected with pMV7 retrovirus; microsomes;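 note: labeled testosterone and its product dihydrotestosterone measured in microsomal reaction extracts via thin layer chromatography plus radioanalytic scanning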
# T2 sequence (P31213 1-254): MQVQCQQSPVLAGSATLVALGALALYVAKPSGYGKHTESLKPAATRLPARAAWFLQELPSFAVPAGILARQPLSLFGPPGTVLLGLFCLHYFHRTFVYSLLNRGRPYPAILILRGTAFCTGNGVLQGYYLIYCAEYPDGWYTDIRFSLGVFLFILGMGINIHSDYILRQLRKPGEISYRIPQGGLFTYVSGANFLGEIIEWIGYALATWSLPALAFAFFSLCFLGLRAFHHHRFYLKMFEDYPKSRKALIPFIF
# [3] = target: T2, type 2 human 5α-reductase (HRED2); assay: Whole cell assay of 5α-reductase, type 2 isoenzyme; type: cell-based; set-up: expressed in transfected cells; host or cells: rat 1A cells infected with pMV7 retrovirus; conditions: Table 7, read-out: HCRED2 IC50;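 note: intact rat 1A cells genetically modified to carry human type 2 5α-reductase served as the enzyme source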
# [4] = target: T1, type 1 human 5α-reductase (HRED1); assay: Whole cell assay of 5α-reductase, type 1 isoenzyme; type: cell-based; set-up: expressed in transfected cells; host or cells: rat 1A cells infected with pMV7 retrovirus; conditions: Table 7;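 note: intact rat 1A cells engineered to express the human type 1 5α-reductase isozyme serve as the enzyme source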
structure (smiles),measurement,setting,value
O=c1c(-c2ccc(O)cc2)coc2cc(O)cc(O)c12 [Genistein],IC50,[1],> 100 µM
same,IC50,[2],23 µM
same,IC50,[3],20 µM
same,inhibition at 100 µM,"[4]; 100 μM, whole cell assay",22%
same,IC50,"[4]; HCRED1 IC50, whole cell assay",> 100 µM
